{"sequences": {"note": "Amino acid sequences for entries named in this document (tags omitted).", "UniProt P16257, whole entry": "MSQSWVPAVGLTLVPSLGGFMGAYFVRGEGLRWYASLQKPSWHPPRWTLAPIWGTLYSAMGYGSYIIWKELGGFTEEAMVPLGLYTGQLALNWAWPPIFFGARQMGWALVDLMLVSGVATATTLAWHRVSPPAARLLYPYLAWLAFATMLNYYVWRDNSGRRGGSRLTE"}, "source": "patent US6372740B1", "about": "“2-aryl-8-oxodihydropurine derivative, process for the producing the same, medicinal compositions containing the same, and intermediates thereof” (Dainippon Pharmaceutical Co., Ltd., priority 1997, dated 2002)", "molecular_target": "BZω3 receptor (Rattus norvegicus, UniProt P16257)", "experiment": "BZω3 (peripheral) benzodiazepine receptor binding assay, [3H] 4'-chlorodiazepam (Ro 5-4864)", "settings": "read-out: ω3 IC50; rat kidney membrane, [3H] Ro 5-4864 0.5 nM, 150 minutes at 0° C.; tested form: 1/4 hydrate"}
{"smiles": "CCn1c(=O)n(CC(=O)N(C)c2ccccc2)c2nc(-c3ccccc3)ncc21", "values": [{"measurement": "IC50", "value": 1.1, "unit": "nM"}]}
